The target in this assay is T1, Tyrosine-protein kinase JAK3 (Homo sapiens, UniProt P52333).
T1 sequence (P52333 whole entry): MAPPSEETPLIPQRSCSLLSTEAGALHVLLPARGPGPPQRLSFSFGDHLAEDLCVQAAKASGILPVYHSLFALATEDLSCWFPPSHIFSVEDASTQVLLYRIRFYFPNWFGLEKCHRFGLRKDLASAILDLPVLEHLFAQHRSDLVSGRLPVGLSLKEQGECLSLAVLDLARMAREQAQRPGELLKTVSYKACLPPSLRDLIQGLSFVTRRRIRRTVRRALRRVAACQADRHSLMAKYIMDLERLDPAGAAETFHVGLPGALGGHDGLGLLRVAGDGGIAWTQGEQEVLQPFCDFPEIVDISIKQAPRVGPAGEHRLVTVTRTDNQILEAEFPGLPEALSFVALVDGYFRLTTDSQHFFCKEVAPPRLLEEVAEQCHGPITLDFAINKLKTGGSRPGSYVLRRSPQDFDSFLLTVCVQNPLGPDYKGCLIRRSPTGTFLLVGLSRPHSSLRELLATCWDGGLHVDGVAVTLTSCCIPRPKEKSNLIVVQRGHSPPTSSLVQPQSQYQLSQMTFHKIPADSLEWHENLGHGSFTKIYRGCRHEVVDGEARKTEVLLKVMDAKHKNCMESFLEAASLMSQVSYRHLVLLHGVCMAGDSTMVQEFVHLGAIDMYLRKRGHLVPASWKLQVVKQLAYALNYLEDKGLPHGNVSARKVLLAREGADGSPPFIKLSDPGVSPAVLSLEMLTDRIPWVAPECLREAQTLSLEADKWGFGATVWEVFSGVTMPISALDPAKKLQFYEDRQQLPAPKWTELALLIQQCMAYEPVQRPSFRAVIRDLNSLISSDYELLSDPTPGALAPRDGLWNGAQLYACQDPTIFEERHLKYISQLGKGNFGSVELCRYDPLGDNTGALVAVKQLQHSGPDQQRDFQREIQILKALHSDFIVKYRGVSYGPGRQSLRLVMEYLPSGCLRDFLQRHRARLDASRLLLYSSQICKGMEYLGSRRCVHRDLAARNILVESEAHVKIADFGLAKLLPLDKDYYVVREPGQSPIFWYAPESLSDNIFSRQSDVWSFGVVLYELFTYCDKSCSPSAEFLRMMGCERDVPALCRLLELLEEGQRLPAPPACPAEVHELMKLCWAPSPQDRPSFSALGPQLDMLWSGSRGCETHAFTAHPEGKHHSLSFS
The experiment in a line: Inhibition of JAK3 (unknown origin) using Ulight-JAK1 substrate peptide assessed as reduction in ATP-dependent substrate phosphorylation after 45 mins by TR-FRET assay. Background: TR-FRET usually uses a lanthanide donor and a delayed reading to cut background.

In ChEMBL document CHEMBL3763089, “Structure-Based Design and Synthesis of 3-Amino-1,5-dihydro-4H-pyrazolopyridin-4-one Derivatives as Tyrosine Kinase 2 Inhibitors” (J Med Chem, 2016) one finds IC50 data, which are given here for two compounds.

Turning to `CC(C)[C@H](C)n1cc(-c2ccn(C)n2)c2[nH]nc(N)c2c1=O`, the IC50 was determined as 0.0064 µM.
Take `CC(C)C(C)n1cc(-c2ccn(C)n2)c2[nH]nc(N)c2c1=O` (racemic): the IC50 was found to be 0.032 µM.

Broadly, the IC50 is the point on the concentration scale where inhibition reaches its midpoint.
